Laboratory results as given in patent publication US8952169B2 (Genentech, Inc., priority 2012, dated 2015).

Amino acid sequences for entries named in this document (tags omitted).
UniProt Q15858, whole entry, looked up: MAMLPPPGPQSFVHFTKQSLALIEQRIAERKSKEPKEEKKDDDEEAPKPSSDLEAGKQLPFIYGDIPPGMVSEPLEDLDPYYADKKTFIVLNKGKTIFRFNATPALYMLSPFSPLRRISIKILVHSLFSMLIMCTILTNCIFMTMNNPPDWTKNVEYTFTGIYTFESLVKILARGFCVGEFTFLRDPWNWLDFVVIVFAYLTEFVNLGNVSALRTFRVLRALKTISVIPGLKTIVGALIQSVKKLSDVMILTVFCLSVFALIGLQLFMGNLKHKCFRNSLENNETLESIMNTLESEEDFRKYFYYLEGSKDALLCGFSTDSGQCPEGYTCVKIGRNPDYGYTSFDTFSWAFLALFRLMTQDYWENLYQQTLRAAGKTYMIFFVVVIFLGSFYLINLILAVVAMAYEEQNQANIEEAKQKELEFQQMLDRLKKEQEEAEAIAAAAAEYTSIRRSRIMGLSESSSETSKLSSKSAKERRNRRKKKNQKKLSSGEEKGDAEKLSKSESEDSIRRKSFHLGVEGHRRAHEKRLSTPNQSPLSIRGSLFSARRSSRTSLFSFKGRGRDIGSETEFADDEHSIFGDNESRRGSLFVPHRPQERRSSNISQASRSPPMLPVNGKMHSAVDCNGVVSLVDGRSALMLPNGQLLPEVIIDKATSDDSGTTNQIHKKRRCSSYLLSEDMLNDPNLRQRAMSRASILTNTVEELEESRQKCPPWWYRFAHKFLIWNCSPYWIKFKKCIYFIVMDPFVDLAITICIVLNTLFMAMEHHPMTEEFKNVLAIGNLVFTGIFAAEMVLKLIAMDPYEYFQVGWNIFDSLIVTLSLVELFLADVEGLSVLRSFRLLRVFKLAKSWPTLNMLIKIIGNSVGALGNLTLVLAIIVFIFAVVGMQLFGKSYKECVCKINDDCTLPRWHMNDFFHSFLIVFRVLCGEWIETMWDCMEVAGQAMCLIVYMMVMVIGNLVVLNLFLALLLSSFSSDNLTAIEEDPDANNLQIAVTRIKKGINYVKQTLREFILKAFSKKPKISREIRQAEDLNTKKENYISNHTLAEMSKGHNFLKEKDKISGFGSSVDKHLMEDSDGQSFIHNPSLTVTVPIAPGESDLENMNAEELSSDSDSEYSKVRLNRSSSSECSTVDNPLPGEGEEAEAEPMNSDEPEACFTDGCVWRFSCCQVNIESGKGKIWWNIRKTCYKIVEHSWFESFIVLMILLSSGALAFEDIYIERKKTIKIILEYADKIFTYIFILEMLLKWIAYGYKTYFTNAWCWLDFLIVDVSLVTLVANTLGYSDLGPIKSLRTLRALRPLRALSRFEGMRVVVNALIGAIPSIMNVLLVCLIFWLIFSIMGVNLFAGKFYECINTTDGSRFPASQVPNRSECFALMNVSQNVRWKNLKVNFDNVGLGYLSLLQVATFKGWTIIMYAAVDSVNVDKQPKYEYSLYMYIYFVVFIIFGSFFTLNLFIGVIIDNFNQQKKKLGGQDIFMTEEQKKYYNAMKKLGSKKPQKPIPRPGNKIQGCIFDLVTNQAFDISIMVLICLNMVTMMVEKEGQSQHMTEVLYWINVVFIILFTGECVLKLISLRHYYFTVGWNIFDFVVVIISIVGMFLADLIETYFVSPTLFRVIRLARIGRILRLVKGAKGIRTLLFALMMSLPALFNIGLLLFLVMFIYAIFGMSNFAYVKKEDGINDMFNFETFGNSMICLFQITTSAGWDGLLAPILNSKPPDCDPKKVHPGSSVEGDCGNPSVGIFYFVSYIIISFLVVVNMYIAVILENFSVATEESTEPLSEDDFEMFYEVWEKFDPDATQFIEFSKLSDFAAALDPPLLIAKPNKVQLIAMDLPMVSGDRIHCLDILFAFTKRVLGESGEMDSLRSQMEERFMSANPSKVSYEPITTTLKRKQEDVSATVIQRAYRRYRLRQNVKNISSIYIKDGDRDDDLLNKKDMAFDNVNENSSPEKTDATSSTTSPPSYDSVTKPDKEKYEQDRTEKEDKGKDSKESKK

Columns and labels:
hNav1.7 [1] = biological target: T1, hNav1.7 (Homo sapiens (Human), UniProt Q15858); assay: Patch voltage clamp electrophysiology (PatchXpress), HEK-293 cells, inactivated state block; format: cell-based; conditions: read-out: EP_PX 293 hNav1.7 (IC50)
hNav1.7 [2] = biological target: T1, hNav1.7; assay: Tritiated aryl sulfonamide binding to membranes from cells expressing hNav1.7 and the β1 subunit (competitive binding); conditions: membranes with hNav1.7 and β1 subunit; [3H]compound displacement, 18 h, room temperature; read-out: NaV1.7 395 Memb Binding (IC50)
Experimental: Tritiated Aryl Sulfonamide Binding to Membranes Isolated from Cells that Heterologously Express hNav1.7 and the β1 Subunit
Preparation of membranes containing recombinantly expressed sodium channels: Frozen recombinant cell pellets were thawed on ice and diluted to 4 times the cell pellet weight with ice cold 50 mM Tris HCl, pH 7.4 buffer. The cell suspensions were homogenized on ice using a motorized glass dounce homogeniser. Homogenates were further diluted 8.4 times with ice cold 50 mM Tris HCl, pH 7.4 buffer and then centrifuged at 200×g at 4° C. for 15 min. The supernatants were collected and centrifuged at 10000×g at 4° C. for 50 min. The pellets were then re-suspended in 100 mM NaCl, 20 mM Tris HCl, pH 7.4 buffer containing 1% v/v protease inhibitors (Calbiochem) and re-homogenized on ice. The homogenized membranes were then processed through a syringe equipped with a 26 gauge needle. Protein concentrations were determined by Bradford Assay and the membranes were stored at −80° C.
Radioligand Binding Studies: Saturation experiments. A representative compound of formula (I) was tritiated. Three tritiums were incorporated in place of methyl hydrogens to generate [^3H]compound. Binding of this radioligand was preformed in 5 mL borosilicate glass test tubes at room temperature. Binding was initiated by adding membranes to increasing concentrations of [^3H]compound in 100 mM NaCl, 20 mM Tris HCl, pH 7.4 buffer containing 0.01% w/v bovine serum albumin (BSA) for 18 h. Non-specific binding was determined in the presence of 1 μM unlabelled compound. After 18 h, the reactants were filtered through GF/C glass fiber filters presoaked in 0.5% w/v polyethylene imine. […] [^3H]compound bound to filters was quantified by liquid scintillation counting.
Competitive binding experiments. Binding reactions were preformed in 96-well polypropylene plates at room temperature for 18 h. In 360 μL, membranes were incubated with 100 μM [^3H]compound and increasing concentrations of Test Compound. Non-specific binding was defined in the presence of 1 μM unlabelled compound. Reactions were transferred and filtered through 96-well glass fiber/C filter plates presoaked with 0.5% polyethylene imine. The filtered reactions were washed 5 times with 200 L ice cold buffer containing 0.25% BSA. Bound radioactivity was determined by liquid scintillation counting.
Data Analysis: For saturation experiments, non-specific binding was subtracted from total binding to provide specific binding and these values were recalculated in terms of pmol ligand bound per mg protein. Saturation curves were constructed and dissociation constants were calculated using the single site ligand binding model: Beq=(Bmax*X)/(X+Kd), where Beq is the amount of ligand bound at equilibrium, Bmax is the maximum receptor density, Kd is the dissociation constant for the ligand, and X is the free ligand concentration.

[3] = HEK-293 cells, β1 coexpressed, inactivated state, holding −60 mV

Compound | IC50 (hNav1.7 [1]; [3]) [nM] | IC50 (hNav1.7 [2]) [nM] | IC50 (hNav1.7 [1]) [nM]
CS(=O)(=O)NC(=O)c1cc(F)c(OCC23CC4CC(CC(C4)C2)C3)c(Cl)c1F [Example 306, N-(azetidin-1-ylsulfonyl)-5-cyclopropyl-4-((4,4-dichlorocyclohexyl)-methoxy)-2-fluorobenzamide] | 4600 | 1300 | –
O=C(NS(=O)(=O)CCO)c1cnc(OCC23CC4CC(CC(C4)C2)C3)c(C2CC2)c1 [Example 174] | – | 1100 | –
CS(=O)(=O)NC(=O)c1ccc(OCCC23CC4CC(CC(C4)C2)C3)c(Cl)c1 | 56.3 | – | –
C[C@H]1CC[C@H](COc2cc(F)c(C(=O)NS(=O)(=O)N3CCC3)cc2C2CC2)CC1 [Example 420] | – | – | 87
C[C@@H]1[C@@H](Oc2cc(F)c(C(=O)NS(C)(=O)=O)cc2Cl)C[C@H]2C[C@@H]1C2(C)C [Example 14] | – | 320 | –
CN(C)S(=O)(=O)NC(=O)c1cc(Cl)c(OC2CC3CC2C2CCCC32)cc1F (stereo not drawn) | 30.4 | – | –
O=C(NS(=O)(=O)N1CC(F)C1)c1cc(C2CC2)c(OCC23CC4CC(CC(C4)C2)C3)cc1F | 4.3 | – | –
CS(=O)(=O)NC(=O)c1cc(Cl)c(OC[C@H]2CC[C@H](C(F)(F)F)CC2)cc1F | 84.7 | – | –
O=C(NS(=O)(=O)C1CC1)c1cc(Cl)c(OCC23CC4CC(CC(C4)C2)C3)cc1F | – | 4.32 | –
4-((1-((4-chlorophenyl)(phenyl)methyl)azetidin-3-yl)-methoxy)-5-cyclopropyl-2-fluoro-N-(methylsulfonyl)benzamide [Example 398] | – | – | 1300
CS(=O)(=O)NC(=O)c1cc(Cl)c(OCCC23CC4CC(CC(C4)C2)C3)cc1F [Example 11] | 8.7 | – | –
CS(=O)(=O)NC(=O)c1cc(Cl)c(OC2C3CC4CC(C3)CC2C4)cc1F (stereo not drawn) [Example 9] | 5.2 | – | –
C[C@@H]1[C@H]2C[C@@H](C[C@H]1Oc1cc(F)c(C(=O)NS(C)(=O)=O)cc1Cl)C2(C)C [Example 10] | – | 260 | –
CC1(C)[C@H]2CC[C@H](COc3cc(F)c(C(=O)NS(C)(=O)=O)cc3Cl)[C@@H]1C2 | 3.8 | – | –
